# Test results as given in publication PMC2365198, “Chemistry and Pharmacokinetics of Gallium Maltolate, a Compound With High Oral Gallium Bioavailability” (Metal-Based Drugs, 2000).
# Settings: dog, in vivo, 1.5 mg/kg
structure (smiles),measurement,value
"O=[N+]([O-])[O-].O=[N+]([O-])[O-].O=[N+]([O-])[O-].[Ga+3] [Ga nitrate, gallium nitrate]",F (AUC0-oo),0.08
